PubChem BioAssay AID1379 (National Center for Advancing Translational Sciences (NCATS), 2008)
This is a selection; strong and weak results do not stand in their true shares. Some results for these compounds are left out of this collection, so the calls shown say nothing about other tests. Activity calls are given as the source filed them. Calls come from the whole dose curve; as a rule, active = well fitted inhibition curve with a large enough effect; inconclusive = small, poorly fitted or top-dose-only effect; inactive = flat fitted curve, though single readings scatter.

Biological target: Luciferin 4-monooxygenase (Photuris pensylvanica) (UniProt Q27757)
Test: Counterscreen for Luciferase (Kinase-Glo TM) Inhibition; note: nearly all actives have a fitted effect of over 60% in size
Conditions: ATP luminescence, 8 min; at 38.3 µM (top of the series) unless noted
Procedure: NCGC Assay Overview: NIH Molecular Libraries Screening Centers Network [MLSCN] NIH Chemical Genomics Center [NCGC] MLSCN Grant: None Luciferase (Kinase-Glo, Promega Corporation) was assayed for its ability to generate light using ATP and luciferin as substrates. The ATP concentration in the assay (10 uM) was within the linear range of enzyme activity for the assay conditions used.
NCGC Assay Protocol Summary: Four uL of substrate mix (final concentration, 50 mM imidazole pH 7.2, 50 mM KCl, 7 mM MgCl2, 10 uM ATP, 0.01% Tween 20, 0.05% BSA) was dispensed into white 1536 well plates. Twenty-three nL of compound was delivered by a pin tool and 2 uL of luciferase detection mix (Kinase-Glo, Promega)) was added. Following 8-minute incubation at ambient temperature, luminescence was measured by a ViewLux (Perkin Elmer) at 5 seconds exposure/plate.
% is set by controls: 0 for no effect and ±100 for the full control effect.

**Q.** For `CC(C)N1C(=O)CC2(CCN(CCOC(=O)C(O)(c3ccccc3)c3ccccc3)CC2)C1=O`, which activity change, negative = inhibition is on record?
**A.** inactive: 1.12%

**Q.** Which activity change, negative = inhibition does the source give for `C=CCN1CCN(CCOC(=O)C(O)(c2ccccc2)c2ccccc2)CC1` here?
**A.** inactive: -1.48%

**Q.** Which activity change, negative = inhibition does the source give for `CCN1CCCC(OC(=O)C2(O)c3ccccc3C=Cc3ccccc32)C1` (stereo unspecified) here?
**A.** inactive: -8.63%

**Q.** For `CN(C)C1CCCC1OC(=O)C(O)(c1ccccc1)c1ccccc1` (stereo unspecified), which activity change, negative = inhibition is on record?
**A.** inactive: 4.09%

**Q.** For `Cc1ccccc1C(=O)NCC1(N2CCCCC2)CCCCC1`, which activity change, negative = inhibition is on record?
**A.** inactive: -0.483%

**Q.** How did the activity change, negative = inhibition turn out when `COc1cccc(C(=O)NCC2(N3CCCCC3)CCCCC2)c1` was run?
**A.** inactive: -0.627%

**Q.** With `CN(C)c1cccc(C(=O)NCC2(N(C)C)CCCCC2)c1` as the molecule, how does the activity change, negative = inhibition read?
**A.** inactive: -8.58%

**Q.** `CN1CCC[C@H](OC(=O)[C@](O)(c2ccccc2)C2CCCC2)C1` was tested. Which activity change, negative = inhibition did it give?
**A.** inactive: -5.95% [at 7.66 µM]

**Q.** With `CN1CC[C@H](OC(=O)[C@](O)(c2ccccc2)C2CCCC2)C1` as the molecule, how does the activity change, negative = inhibition read?
**A.** inactive: -5.73% [at 7.66 µM]

**Q.** Which activity change, negative = inhibition does the source give for `O=C(OC1CN2CCC1CC2)C(CO)(c1ccccc1)c1ccccc1` (stereo unspecified) here?
**A.** inactive: 0.415%

**Q.** `C=C(C)C#C[C@@](O)(C(=O)OC1CCN(C)CC1)c1ccccc1` was tested. Which activity change, negative = inhibition did it give?
**A.** inactive: -0.787% [at 7.66 µM]
